In PubChem BioAssay AID2690 (NMMLSC, 2010):
Only a part is listed here, and it is no random draw. Some tests of the compounds listed are not included; inactive here does not mean inactive elsewhere. Activity calls are given as the source filed them.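 Rule for the calls: active = superoxide response under a set limit, about three screen SD below normal (cut at about 65% in these data); inactive = the rest.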

test: reduction of superoxide in aged yeast, primary screen, HTS (AID 2690);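 note: yeast aged for seven days with compound at 30 °C before DHE staining; 100% = average MFI of all compound-treated wells on the plate with controls excluded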; conditions: S. cerevisiae aged cells, superoxide DHE fluorescence; at 10 µM; hits give low values

Compound | superoxide response (% of plate mean)
Cc1ccc(C(=O)NCC2(N3CCCCC3)CCCCC2)cc1 | inactive: 85.5%
COc1cc(SC)ccc1C(=O)NCC1(N(C)C)CCCCC1 | inactive: 91%
CCN(CC)CC(C)C(C)OC(=O)C(O)(c1ccccc1)c1ccccc1 (centres undefined) | inactive: 94.6%
CC(C)N1C(=O)CC2(CCN(CCOC(=O)C(O)(c3ccccc3)c3ccccc3)CC2)C1=O | inactive: 91.2%
CN1[C@@H]2CC[C@H]1CC(OC(=O)C(O)(c1ccccc1)c1ccccc1)C2 (some centres undefined) | inactive: 101%
O=C(NCC1(N2CCCCC2)CCCCC1)c1cc([N+](=O)[O-])ccc1Cl | inactive: 105%
COc1ccc(C(=O)NCC2(N(C)C)CCCCC2)cc1 | inactive: 112%
O=C(NCC1(N2CCCCC2)CCCCC1)c1cccc(Br)c1 | inactive: 85.5%
Cc1cc(C(=O)NCC2(N3CCCCC3)CCCCC2)ccc1[N+](=O)[O-] | inactive: 112%
CCN1CCCC(OC(=O)C2(O)c3ccccc3C=Cc3ccccc32)C1 (centres undefined) | inactive: 109%
O=C(NCC1(N2CCCCC2)CCCCC1)c1cc(F)c(F)cc1Cl | inactive: 106%
C=CCN1CCN(CCOC(=O)C(O)(c2ccccc2)c2ccccc2)CC1 | inactive: 99.3%
CN(C)C1CCCC1OC(=O)C(O)(c1ccccc1)c1ccccc1 (centres undefined) | inactive: 94.8%
CN(C)c1ccc(C(=O)NCC2(N(C)C)CCCCC2)cc1 | inactive: 91.1%
Cc1ccccc1C(=O)NCC1(N2CCCCC2)CCCCC1 | inactive: 88.2%
O=C(NCC1(N2CCCCC2)CCCCC1)c1cccc(Cl)c1 | inactive: 98.4%
COc1ccc(Cl)cc1C(=O)NCC1(N(C)C)CCCCC1 | inactive: 105%
COc1cccc(C(=O)NCC2(N3CCCCC3)CCCCC2)c1 | inactive: 101%
COc1cc(C(=O)NCC2(N(C)C)CCCCC2)c([N+](=O)[O-])cc1OC | active: 42%
CN(C)C1(CNC(=O)c2ccc(Br)cc2)CCCCC1 | inactive: 96%
CC(C)Oc1ccc(C(=O)NCC2(N(C)C)CCCCC2)cc1 | inactive: 109%
CN(C)c1cccc(C(=O)NCC2(N(C)C)CCCCC2)c1 | inactive: 80.3%
COc1ccc(Br)c(C(=O)NCC2(N3CCCCC3)CCCCC2)c1 | inactive: 93.1%
O=C(OC1CN2CCC1CC2)C(CO)(c1ccccc1)c1ccccc1 (centres undefined) | inactive: 99.4%
